Values quoted from earlier work as cited in patent publication US9061077B2, “Methods of determining renal function using technetium-99m tricarbonyl-nitrilotriacetic acid” (Emory University, priority 2008, dated 2015).

Details: literature; cited from earlier work

In the case of `O=C(O)CN(CC(=O)O)CC(=O)O` [NTA, nitrilotriacetic acid], the Teratogenicity / genotoxicity is listed as “not been found to be teratogenic or genotoxic”.
